This note sets out measurements from patent US9850203B2, “Autotaxin inhibitor compounds” (PharmAkea, Inc., priority 2013, dated 2017).

The target of the assay is human autotaxin (ATX) (Homo sapiens (Human), UniProt Q13822). In words: Human Autotaxin Assay. Type of assay: biochemical. To be noted: concentrated conditioned media from Hep3B cells; LPC substrate, choline release. On the procedure: ATX activity is assayed in concentrated conditioned media from Hep3B human hepatocellular carcinoma cells by measuring the amount of choline released from the substrate, lysophosphatidylcholine (LPC) as it is cleaved to LPA. Conditioned media is collected from confluent Hep3B cells and concentrated 20-fold using Centriprep-30 filter devices (Millipore). To assay for autotaxin inhibition, 10-20 μL of the concentrated conditioned media is incubated with 2.5 μL of a test compound in DMSO and 72.5-82.5 μL lyso-PLD buffer (100 mM Tris pH 9, 500 mM NaCl, 5 mM MgCl2, 5 mM CaCl2, 0.05% Triton X-100 in the presence or absence of 0.2% fatty-acid-free human serum albumin) for 15 min at 37° C. After the 15 min incubation, 5 uL of 2 mM LPC (14:0; Avanti Polar Lipids Cat#855575C) diluted in lyso-PLD buffer is added for a final concentration of 100 uM and the incubation continues for 1.5-3 hours at 37° C. 100 μL of a color mix containing 4.5 mM 4-aminoantipyrine, 2.7 mM N-ethyl-N-(2-hydroxy-3-sulfopropyl)-m-toluidine, 21 units/ml horseradish peroxidase and 3 units/mL choline oxidase in 50 mM Tris, pH 8, 4.5 mM MgCl2 is added and the incubation continued for 15 minutes at room temperature before reading the absorbance at 555 nm.

Usually IC50 stands for the concentration that gives 50% inhibition. Low values mean greater potency, high ones weaker potency.

The compound `Cc1c(Sc2cccc(C(=O)O)c2F)c2ccc(Cl)c(F)c2n1CC(=O)N1CCC(O)(C(F)(F)F)C1` (racemic) [Compound 2-57, Sodium 3-((6-chloro-7-fluoro-1-(2-(3-hydroxy-3-(trifluoromethyl)pyrrolidin-1-yl)-2-oxoethyl)-2-methyl-1H-indol-3-yl)thio)-2-fluorobenzoate] showed a 50% inhibitory concentration (IC50) of at most 500 nM.
